Measurements reported in PubChem BioAssay AID1466 (National Center for Advancing Translational Sciences (NCATS), 2008).
The list shows a part of the results. Some tests of the compounds listed are not included; inactive here does not mean inactive elsewhere. Results filed as inconclusive are left out. Activity calls are given as the source filed them. Calls follow the shape of the dose curve; as a rule, active = well fitted inhibition curve with a large enough effect; inconclusive = small, poorly fitted or top-dose-only effect, or effect the other way, or another doubt; inactive = no such curve, though single readings can be large or run the other way.

Target: Lysosomal alpha-glucosidase (Homo sapiens) (UniProt P10253)
Assay: qHTS Assay for Inhibitors of Human alpha-Glucosidase as a Potential Chaperone Treatment of Pompe Disease;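 also: plate controls were uninhibited enzyme wells for no effect and no-enzyme background for full effect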
Conditions: purified human GAA, 4-MU-alpha-glucoside fluorescence; at 76.9 µM (top of the series)

Question: `CN(C)c1cccc(C(=O)NCC2(N(C)C)CCCCC2)c1` was tested. Which activity change, negative = inhibition did it give?
Answer: The activity change, negative = inhibition was inactive: 0.763%.

Question: For `O=C(OC1CN2CCC1CC2)C(CO)(c1ccccc1)c1ccccc1` (stereo not drawn), which activity change, negative = inhibition is on record?
Answer: Its activity change, negative = inhibition is inactive: -0.329%.

Question: How did the activity change, negative = inhibition turn out when `CCN1CCCC(OC(=O)C2(O)c3ccccc3C=Cc3ccccc32)C1` (stereo not drawn) was run?
Answer: The activity change, negative = inhibition was inactive: 5.34%.

Question: With `C=CCN1CCN(CCOC(=O)C(O)(c2ccccc2)c2ccccc2)CC1` as the compound, how does the activity change, negative = inhibition read?
Answer: The activity change, negative = inhibition was inactive: 8.3%.

Question: With `Cc1ccccc1C(=O)NCC1(N2CCCCC2)CCCCC1` as the compound, how does the activity change, negative = inhibition read?
Answer: The activity change, negative = inhibition was inactive: -7.14%.

Question: `CN(C)C1CCCC1OC(=O)C(O)(c1ccccc1)c1ccccc1` (stereo not drawn) was tested. Which activity change, negative = inhibition did it give?
Answer: Its activity change, negative = inhibition is inactive: 4.13%.

Question: For `CC(C)N1C(=O)CC2(CCN(CCOC(=O)C(O)(c3ccccc3)c3ccccc3)CC2)C1=O`, which activity change, negative = inhibition is on record?
Answer: The activity change, negative = inhibition was inactive: -12.1%.

Question: For `O=C(NCC1(N2CCCCC2)CCCCC1)c1cc([N+](=O)[O-])ccc1Cl`, which activity change, negative = inhibition is on record?
Answer: Its activity change, negative = inhibition is inactive: 0.311%.
